Target: cardiac myosin ATPase (Bos taurus (Bovine), UniProt Q9BE39)
Details: read-out: IC50 of the inhibitory effect on cardiac myosin ATPase activity; cardiac myosin S1 with actin/cardiac tropomyosin/troponin complex, 37° C., 360 nm

Molecule `C[C@H](NC1=CC(=O)C2(CCCC2)C(=O)N1)c1cc(F)ccc1F` [Compound of formula (I)] has an IC50 of 220 nM.

— patent publication US20250154108A1 (priority 2022, published 2025)
